One may read the EC50 as the concentration needed to bring the measured effect to its halfway point. Read a high EC50 as weaker potency.

Amino acid sequences for entries named in this document (tags omitted).
UniProt P32300, whole entry: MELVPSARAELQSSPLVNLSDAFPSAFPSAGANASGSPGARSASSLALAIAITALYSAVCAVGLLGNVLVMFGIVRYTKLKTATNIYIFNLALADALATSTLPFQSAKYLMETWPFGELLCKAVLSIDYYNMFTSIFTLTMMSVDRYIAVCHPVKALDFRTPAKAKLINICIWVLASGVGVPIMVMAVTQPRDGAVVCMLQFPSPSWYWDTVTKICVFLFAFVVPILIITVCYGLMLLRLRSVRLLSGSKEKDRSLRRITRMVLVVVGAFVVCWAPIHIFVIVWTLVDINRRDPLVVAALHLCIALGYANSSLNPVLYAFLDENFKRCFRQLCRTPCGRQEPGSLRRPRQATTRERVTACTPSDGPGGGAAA

Results on one compound are retold here after patent US6359111B1, “Opioid receptor targeting” (NeoRx Corporation, priority 1998, dated 2002).

The target of the experiment is Delta-Opioid Receptor (Mus musculus, UniProt P32300). The experiment can be described thus: Delta-opioid receptor binding: inhibition of specific binding of 3H NID to intact NG108-15 cells.

In the case of `CN(C)c1ccc2c(-c3ccc(C(=O)NCCCCCNC(=O)CCCCCNC(=O)Cn4c5c(c6ccccc64)CC4(O)C6Cc7ccc(O)c8c7C4(CCN6CC4CC4)C5O8)cc3C(=O)O)c3ccc(N(C)C)cc3[o+]c2c1` (stereo not shown), under “competition with 3H NID, intact NG108-15 cells, 2 hr at 37° C.”, the EC50 is 16 nM. For the same compound, the “Log EC80 (±S.E.)” value (competition with 10^−9 M 3H NID stock, intact NG108-15 cells, 2 hr at 37° C., log molar concentration, one site competitive binding fit, negative sign printed) was −7.8 ± 0.1. Besides, the Test/Control (ratio of EC50 of test compound to EC50 of NID in the same test) was found to be 8.9. For the same compound, for the setting “summary of Table 1”, the “fold lower in affinity than NID” value is “about 9 fold”.
